Test results: ChEMBL document CHEMBL1795257, “Synthesis of new opioid derivatives with a propellane skeleton and their pharmacology: part 1” (Bioorg Med Chem Lett, 2011)

By UniProt entry, the sequences of proteins in these tests, tags left out. Where a name states a change or a piece, a line headed by the entry shows the natural chain unless it says otherwise.
UniProt P41144: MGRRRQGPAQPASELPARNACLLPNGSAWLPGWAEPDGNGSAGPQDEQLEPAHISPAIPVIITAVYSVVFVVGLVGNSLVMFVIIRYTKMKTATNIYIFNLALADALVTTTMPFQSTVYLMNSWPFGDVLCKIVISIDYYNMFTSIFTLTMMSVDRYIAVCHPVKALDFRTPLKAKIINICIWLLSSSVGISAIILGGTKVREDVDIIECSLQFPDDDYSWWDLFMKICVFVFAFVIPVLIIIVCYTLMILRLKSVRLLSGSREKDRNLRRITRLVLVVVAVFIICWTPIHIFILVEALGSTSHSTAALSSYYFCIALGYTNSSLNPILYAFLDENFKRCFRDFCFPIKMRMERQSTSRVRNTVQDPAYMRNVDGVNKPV

Target: Kappa-type opioid receptor (Cavia porcellus, UniProt P41144)
Assay: Displacement of [3H]U69593 from kappa opioid receptor in guinea pig cerebellum homogenate by scintillation counting
Assay type: tissue-based

Work on `CCC12CCN(CC3(O)CC3)[C@H](Cc3ccc(O)cc31)C2(C)C` yielded a Ki of 0.03 nM.
